In BindingDB's records for PubMed 9454827 (Sibia Neurosciences, 1998) one finds Ki data, which are given here for 1 compound.

Protein sequences, listed by entry. Tags and fused reporters are not part of them.
UniProt P32297, whole entry: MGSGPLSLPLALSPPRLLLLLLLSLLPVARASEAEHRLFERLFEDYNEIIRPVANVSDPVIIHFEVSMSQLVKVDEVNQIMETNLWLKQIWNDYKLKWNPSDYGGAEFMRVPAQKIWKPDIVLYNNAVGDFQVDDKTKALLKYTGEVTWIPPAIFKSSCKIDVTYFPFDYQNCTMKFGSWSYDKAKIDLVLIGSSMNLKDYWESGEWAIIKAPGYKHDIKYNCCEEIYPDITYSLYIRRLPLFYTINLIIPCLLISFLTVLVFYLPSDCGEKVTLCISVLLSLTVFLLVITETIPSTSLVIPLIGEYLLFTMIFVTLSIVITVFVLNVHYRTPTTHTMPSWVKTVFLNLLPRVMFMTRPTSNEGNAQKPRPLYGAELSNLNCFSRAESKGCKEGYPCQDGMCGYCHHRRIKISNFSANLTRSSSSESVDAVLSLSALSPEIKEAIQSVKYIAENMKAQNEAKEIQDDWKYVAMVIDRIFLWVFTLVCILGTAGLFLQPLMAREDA

pKi: −log10 of the molar value.

The test concerns the target Neuronal acetylcholine receptor subunit alpha-3 (Homo sapiens, UniProt P32297).

On to `CNC1(C)C2CCC(C2)C1(C)C` (stereo unspecified) [Methyl-(2,3,3-trimethyl-bicyclo[2.2.1]hept-2-yl)-amine(Mecamylamine)], for which the pKi (commonly −log10 of the Ki, conventionally taken in molar units) is 5.85.
